Measured values taken from US10772884B2, “Sulphate salts of N-(3-(4-(3-(diisobutylamino)propyl)piperazin-1-yl)propyl)-1H-benzo[d]imidazol-2-amine, preparation thereof and use of the same” (ALZPROTECT, priority 2012, dated 2020).

Assay: salt formation results (physical form)
Assay type: physicochemical
Conditions: Acid eq. added 1.1
Experimental: The hydrochloride, hydrobromide, acetate, tartrate, fumarate, malate, oxalate and sulphate salts of N-(3-(4-(3-(diisobutylamino)propyl)piperazin-1-yl)propyl)-1H-benzo[d]imidazol-2-amine were prepared according to procedures similar to those described in the previous examples or standard salt formation methods well known in the art.

Physical form: No solid formed
Substance: Bromide
